Test results: patent US10544132B2, “Isoindolinone inhibitors of the MDM2-p53 interaction having anticancer activity” (ASTEX THERAPEUTICS LIMITED, priority 2015, dated 2020)

What was measured:
SJSA-1 cells [1] = experiment: SJSA-1 CellTiter-Glo luminescent cell viability assay (Protocol B); conditions: Homo sapiens, SJSA-1, 72 h, read-out: SJSA1 IC50 (μM) (Protocol B)
SJSA-1 cells [2] = experiment: SJSA-1 growth inhibition, sulphorhodamine B (SRB) method (Protocol A); conditions: Homo sapiens, SJSA-1, 72 h, read-out: SJSA-1 IC50 (μM) (Protocol A)

IC50 (SJSA-1 cells [1]): 0.46 µM
IC50 (SJSA-1 cells [2]): 0.33 µM
SMILES: CC(C)(O)c1cc(F)c2c(c1)C(=O)N(Cc1ccc(Cl)cc1)[C@@]2(OCC1(CO)CC1)c1ccc(Cl)cc1 [Example 2, (3R)-3-(4-chlorophenyl)-2-[(4-chlorophenyl)methyl]-4-fluoro-3-{[1-(hydroxymethyl)cyclopropyl]methoxy}-6-(2-hydroxypropan-2-yl)-2,3-dihydro-1H-isoindol-1-one]
